The conditions of series [1]: overnight (12 h) fast, tail vein blood, glucometer; n = 3/group.
For the next series, the system named is DPP-4. The settings on record: in circulation, rapid hydrolysis by DPP-4; cited from earlier work.
For series [2] the following is noted: 15 nmol/kg/day GIP n = 11, saline n = 12; 6-OHDA lesioned rats; p = 0.419.

Consider 1 compound from paper PMC5979480, “Glucose-Dependent Insulinotropic Polypeptide Mitigates 6-OHDA-Induced Behavioral Impairments in Parkinsonian Rats” (International Journal of Molecular Sciences, 2018).

On to `CC[C@H](C)[C@H](NC(=O)[C@H](CO)NC(=O)[C@H](Cc1ccc(O)cc1)NC(=O)[C@H](CC(=O)O)NC(=O)[C@H](CO)NC(=O)[C@@H](NC(=O)[C@H](Cc1ccccc1)NC(=O)[C@@H](NC(=O)CNC(=O)[C@H](CCC(=O)O)NC(=O)[C@H](C)NC(=O)[C@@H](N)Cc1ccc(O)cc1)[C@@H](C)O)[C@@H](C)CC)C(=O)N[C@@H](C)C(=O)N[C@@H](CCSC)C(=O)N[C@@H](CC(=O)O)C(=O)N[C@@H](CCCCN)C(=O)N[C@H](C(=O)N[C@@H](Cc1c[nH]cn1)C(=O)N[C@@H](CCC(N)=O)C(=O)N[C@@H](CCC(N)=O)C(=O)N[C@@H](CC(=O)O)C(=O)N[C@@H](Cc1ccccc1)C(=O)N[C@H](C(=O)N[C@@H](CC(N)=O)C(=O)N[C@@H](Cc1c[nH]c2ccccc12)C(=O)N[C@@H](CC(C)C)C(=O)N[C@@H](CC(C)C)C(=O)N[C@@H](C)C(=O)N[C@@H](CCC(N)=O)C(=O)N[C@@H](CCCCN)C(=O)NCC(=O)N[C@@H](CCCCN)C(=O)N[C@@H](CCCCN)C(=O)N[C@@H](CC(N)=O)C(=O)N[C@@H](CC(=O)O)C(=O)N[C@@H](Cc1c[nH]c2ccccc12)C(=O)N[C@@H](CCCCN)C(=O)N[C@@H](Cc1c[nH]cn1)C(=O)N[C@@H](CC(N)=O)C(=O)N[C@H](C(=O)N[C@H](C(=O)N[C@@H](CCC(N)=O)C(=O)O)[C@@H](C)O)[C@@H](C)CC)C(C)C)[C@@H](C)CC` [GIP, glucose-dependent insulinotropic polypeptide], for which the “Fasting blood glucose during GIP treatment” value in series [1] is recorded as “no change”. Moreover, the “Half-life of active GIP” value with DPP-4 is listed as “approximately 7 min”. For the same compound, the “Body weight, GIP vs saline” value in series [2] is reported as “did not differ”.
